From publication PMC2848328 (The Journal of biological chemistry, 2006)

Target: T1, AMAN-2 (F58H1.1; Golgi α-mannosidase II) (Caenorhabditis elegans, UniProt Q2PJ74)
T1 sequence (Q2PJ74 125-1145): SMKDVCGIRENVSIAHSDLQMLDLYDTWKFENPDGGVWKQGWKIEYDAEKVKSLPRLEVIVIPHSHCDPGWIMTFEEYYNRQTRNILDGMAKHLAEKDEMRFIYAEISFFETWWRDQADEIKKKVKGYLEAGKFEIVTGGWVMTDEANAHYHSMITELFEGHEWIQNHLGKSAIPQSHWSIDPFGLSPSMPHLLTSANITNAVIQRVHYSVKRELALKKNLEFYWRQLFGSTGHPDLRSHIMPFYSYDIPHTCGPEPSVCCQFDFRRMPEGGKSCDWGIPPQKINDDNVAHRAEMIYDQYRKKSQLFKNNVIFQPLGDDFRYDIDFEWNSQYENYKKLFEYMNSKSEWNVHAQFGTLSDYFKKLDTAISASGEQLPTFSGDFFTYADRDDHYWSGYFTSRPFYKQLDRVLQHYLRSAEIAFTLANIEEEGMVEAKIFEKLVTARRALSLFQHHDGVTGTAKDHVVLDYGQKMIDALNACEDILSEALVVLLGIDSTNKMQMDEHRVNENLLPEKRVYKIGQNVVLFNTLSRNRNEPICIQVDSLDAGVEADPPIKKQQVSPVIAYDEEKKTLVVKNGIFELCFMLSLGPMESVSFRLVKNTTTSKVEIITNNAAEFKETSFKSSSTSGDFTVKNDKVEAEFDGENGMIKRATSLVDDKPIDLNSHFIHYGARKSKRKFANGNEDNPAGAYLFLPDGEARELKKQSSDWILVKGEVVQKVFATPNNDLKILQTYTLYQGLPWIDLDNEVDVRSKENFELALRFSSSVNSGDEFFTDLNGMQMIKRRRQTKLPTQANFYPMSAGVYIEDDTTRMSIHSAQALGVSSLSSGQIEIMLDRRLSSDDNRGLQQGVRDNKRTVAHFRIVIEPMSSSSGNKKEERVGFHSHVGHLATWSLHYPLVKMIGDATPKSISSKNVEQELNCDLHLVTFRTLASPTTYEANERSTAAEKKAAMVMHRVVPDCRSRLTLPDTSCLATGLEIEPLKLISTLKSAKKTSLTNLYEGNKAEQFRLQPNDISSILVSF
Test: inhibition of p-nitrophenyl-α-mannoside hydrolysis, A405
Type: biochemical
Conditions: read-out: % inhibition at 10 nM

O[C@H]1[C@H]2[C@H](O)CCCN2C[C@H]1O [swainsonine]
inhibition at 0.01 µM: ~45%
